# Laboratory results published in PubChem BioAssay AID1554 (Broad Institute, 2009).
# The list shows a part of the results, in another mix than the full data. Activity calls are given as the source filed them. Cut-off read from the data, not from the text of the source: active = inhibition above about 50%; inconclusive = no clear call, values can overlap the other calls; inactive = below that.
# Assay: PubChem AID 1554
# Settings: BJeLR (HRASV12) viability, CellTiter-Glo ATP luminescence, 48 h; stronger effect = higher value; concentration not given here
row,SMILES,inhibition
1,CN1CCC(Nc2ccc(F)c(Cl)c2)CC1,inactive: -3.25%
2,CCOc1ncccc1C(=O)NCC1(N2CCOCC2)CCCCC1,inactive: -0.92%
3,O=C(O)C1(Nc2ccccc2)CCN(Cc2ccccc2)CC1,inactive: -2.29%
4,CC(C)(C)OC(=O)N1CCC(Nc2ccccc2)CC1,inactive: 7.93%
5,CCCOc1ccc(C(=O)NCC2(N(C)C)CCCCC2)cc1,inactive: 0.507%
6,COc1cccc(C(=O)N(c2cc(C)cc(C)c2)C2CCN(C(=O)OC(C)(C)C)CC2)c1,inactive: 1.33%
7,COc1cc(OC)cc(C(=O)NCC2(N3CCOCC3)CCCCC2)c1,inactive: -3.65%
8,CCC(CO)(C(=O)OC1CN2CCC1CC2)c1ccccc1 (centres undefined),inactive: 0.581%
9,CN1CCC(Nc2ccc(Cl)cc2)CC1,inactive: -2.69%
10,CCCOc1ccc(C)cc1CN(CCCl)CCCl,inactive: 4.73%
11,COc1cc(OC)cc(C(=O)NCC2(N3CCCCC3)CCCCC2)c1,inactive: -3.74%
12,Fc1ccccc1NC1CCN(Cc2ccccc2)CC1,inactive: -4.66%
13,Cc1ccc(C(=O)NCC2(N3CCCCC3)CCCCC2)o1,inactive: -8.86%
14,CCN1CCC(Nc2cccc(F)c2)CC1,inactive: 0.788%
15,CN(C)c1ccc(C(=O)NCC2(N3CCCCC3)CCCCC2)cc1,inactive: 10.1%
16,N#Cc1ccc(C(=O)NCC2(N3CCCCC3)CCCCC2)cc1,inactive: -2.44%
17,CC(C)(C)OC(=O)N1CCC(N(C(=O)c2ccccc2)c2ccc(Cl)cc2)CC1,inactive: -13%
18,CN(C)C1(CNC(=O)c2cccc(C#N)c2)CCCCC1,inactive: 5.66%
19,CCCN1CCC(Nc2cc(OC)cc(OC)c2)CC1,inactive: 0.611%
20,c1ccc(CN2CCC(Nc3ccccc3)CC2)cc1,inactive: 4.57%

row,SMILES,inhibition
1,COc1ccc(C(=O)NCC2(N3CCOCC3)CCCCC2)cc1OC,inactive: 1.32%
2,CCOC(=O)N1CCC(Nc2ccc(C)cc2)CC1,inactive: 1.61%
3,N/C(=N\O)c1c(N)no[n+]1[O-],inactive: 12.3%
4,CCc1cc(C(=O)NCC2(N3CCCCC3)CCCCC2)sc1C,inactive: 5.7%
5,O=C(OC1CN2CCC1CC2)C1c2ccccc2C=Cc2ccccc21 (centres undefined),inactive: 1.85%
6,CC(C)c1ccc(NC2CCN(C(=O)OC(C)(C)C)CC2)cc1,inactive: -0.369%
7,CN(C)c1cccc(C(=O)NCC2(N3CCCCC3)CCCCC2)c1,inactive: -3.29%
8,COc1ccc(CN(CCCl)CCCl)cc1Cl,inactive: -10.3%
9,COc1cc(OC)c(C(=O)NCC2(N(C)C)CCCCC2)cc1OC,inactive: -1.92%
10,CN1CCC(Nc2cccc(F)c2)CC1,inactive: 15.5%
11,CCCOc1ccc(C(=O)NCC2(N(C)C)CCCCC2)cc1OC,inactive: -7.47%
12,O=C(NCC1(N2CCCCC2)CCCCC1)c1ccc(OC(F)F)cc1,inactive: -2.13%
13,N#CC1(Nc2ccccc2)CCN(CCc2ccccc2)CC1,inactive: 1.71%
14,CCN1CCC(Nc2ccc(Cl)cc2)CC1,inactive: -3.13%
15,O=C(NCC1(N2CCCCC2)CCCCC1)c1cccc([N+](=O)[O-])c1,inactive: 6.39%
16,O=C(NCC1(N2CCCCC2)CCCCC1)c1cccc(C(F)(F)F)c1,inactive: 3.46%
17,O=C(NCC1(N2CCOCC2)CCCCC1)c1cc(=O)[nH]c2ccccc12,inactive: 4.51%
18,COc1cc(C(=O)NCC2(N3CCCCC3)CCCCC2)ccc1OC(F)F,inactive: 3.94%
19,COc1ccc(NC2CCN(C(=O)OC(C)(C)C)CC2)cc1,inactive: -8.23%
20,CN1CCN(CCOC(=O)C(O)(c2ccccc2)c2ccccc2)CC1,inactive: 4.21%

row,SMILES,inhibition
1,CCOc1ccc(C)cc1CN(CCCl)CCCl,inactive: 6%
2,CCOC(=O)N1CCC(Nc2ccc(F)cc2)CC1,inactive: -2.78%
3,COc1ccc(NC2CCN(CCc3ccccc3)CC2)c(OC)c1,inactive: -7.23%
4,O=C(NCC1(N2CCCCC2)CCCCC1)c1ccc(F)cc1,inactive: -7.54%
5,Cc1ccc(OCC(C)C)c(CN(CCCl)CCCl)c1,inactive: 7.97%
6,CCOC(=O)N1CCC(Nc2cccc(C)c2)CC1,inactive: -3.91%
7,COc1cc(C(=O)NCC2(N(C)C)CCCCC2)ccc1OC(F)F,inactive: -4.8%
8,CC(C)(C)OC(=O)N1CCC(N(C(=O)c2ccccc2)c2ccc(F)cc2)CC1,inactive: 8.36%
9,COc1ccc(C(=O)NCC2(N3CCCCC3)CCCCC2)c(OC)c1OC,inactive: -11%
10,COc1ccc(C(=O)NCC2(N3CCCCC3)CCCCC2)cc1,inactive: -1.46%
11,O=C(NCC1(N2CCCCC2)CCCCC1)c1cccs1,inactive: 6.22%
12,O=C(NCC1(N2CCCCC2)CCCCC1)c1ccc(=O)[nH]c1,inactive: -11.8%
13,CSc1ccccc1C(=O)NCC1(N2CCCCC2)CCCCC1,inactive: -1.89%
14,Cc1cc(C)cc(N(C(=O)c2ccccc2)C2CCN(C(=O)OC(C)(C)C)CC2)c1,inactive: 2.56%
15,O=C(NCC1(N2CCCCC2)CCCCC1)c1ccc(Cl)nc1,inactive: -5.9%
16,O=C(NCC1(N2CCOCC2)CCCCC1)c1cc2ccccc2o1,inactive: -0.409%
17,N#CC1(Nc2ccccc2)CCN(Cc2ccccc2)CC1,inactive: 1.04%
18,O=C(OC1CN2CCC1CC2)C1c2ccccc2Oc2ccccc21 (centres undefined),inactive: 15.8%
19,CCOC(=O)N1CCC(Nc2ccc(OC)cc2)CC1,inactive: -9.44%
